Earlier results in publication PMC5131886 (CPT: Pharmacometrics & Systems Pharmacology, 2016).
pIC50: −log10 of the molar value.

System: cells expressing VEGFR2
Conditions: read-out: in vitro measured IC50 for cells expressing VEGFR2; cited from earlier work

For CCN(CC)CCNC(=O)c1c(C)[nH]c(/C=C2\C(=O)Nc3ccc(F)cc32)c1C [Sunitinib, Sunitinib malate], the pIC50 is given as 8.00.
